Measurements taken from patent US20250275978A1 (Cardiff Oncology, Inc., priority 2024, published 2025).

Assays:
[1] = test system: RAS^WT colorectal cancer patient derived xenograft (PDX) models; test: Example 2: antitumor activity in RAS^WT CRC PDX models, 18-19 days; format: in vivo, mice
Experimental: Tumor volumes (TV) were measured twice a week, and % tumor volume change (TVC) from baseline was calculated as follows: (TVi/TV0−1)×100. Tumor stasis defined as TVC between 0 and 20%, and tumor regression as TVC less than 0% at last measurement. Results are presented as mean±SEM.
Provided in this example are methods for use of PLK1 inhibitor as monotherapy or combination with EGFR inhibitor for treatment of cancer.

[2] = test system: RAS^WT CRC patient-derived xenograft (PDX) models; test: Example 1: antitumor activity in RAS^WT CRC PDX models, 18 days; format: in vivo, nude mice
Experimental: Twenty RAS^WT CRC PDXs were selected and engrafted in nude mice. […] PDX models were chosen based on their sensitivity to cetuximab, resulting in a selection of 7 cetuximab-sensitive (CetuxS) and 13 cetuximab-resistant (CetuxR) PDXs, including 7 with intrinsic resistance and 6 with acquired-resistance. Tumor volume change from baseline (TVC) was calculated as 100%×(Vt−Vo)/Vo and tumor growth inhibition (TGI) as 100%×(TVCcontrol−TVCtreated)/TVCcontrol. Tumor regression was defined as TVCD18<0 and tumor stasis […].

[3] = 6 PDXs with acquired resistance to cetuximab

For “cetuximab: monoclonal antibody targeting the epidermal growth factor receptor (EGFR) [reference compound]”, the “models resistant to cetuximab” value [1, 3] was “Four”, the “models showing partial response” value [1, 3] was “two” and the response of models ([1]; 7 PDXs sensitive to cetuximab) was “all models responded”. The “models in which cetuximab resistance was confirmed” value ([1]; 7 PDXs with intrinsic resistance to cetuximab) was “six of the seven”, the “effect in cetuximab-sensitive (CetuxS) PDXs” value ([2]; 7 CetuxS PDXs, 20 mg/kg BIW, 18 days) was “tumor regression in all the CetuxS PDXs” and the “median TGI (tumor growth inhibition)” value ([2]; cetuximab-resistant models (13), IQR 16-61) was 29%.
